Results as given in US5837718A, “Imidazole-derivatives having agonistic or antagonistic activity on the histamine H3-receptor” (Seed Capital Investment (SCI) B.V., priority 1995, dated 1998).

Amino acid sequences for entries named in this document (tags omitted). A change or cut given only in a name is not applied to a line headed by its entry.
UniProt Q9QYN8: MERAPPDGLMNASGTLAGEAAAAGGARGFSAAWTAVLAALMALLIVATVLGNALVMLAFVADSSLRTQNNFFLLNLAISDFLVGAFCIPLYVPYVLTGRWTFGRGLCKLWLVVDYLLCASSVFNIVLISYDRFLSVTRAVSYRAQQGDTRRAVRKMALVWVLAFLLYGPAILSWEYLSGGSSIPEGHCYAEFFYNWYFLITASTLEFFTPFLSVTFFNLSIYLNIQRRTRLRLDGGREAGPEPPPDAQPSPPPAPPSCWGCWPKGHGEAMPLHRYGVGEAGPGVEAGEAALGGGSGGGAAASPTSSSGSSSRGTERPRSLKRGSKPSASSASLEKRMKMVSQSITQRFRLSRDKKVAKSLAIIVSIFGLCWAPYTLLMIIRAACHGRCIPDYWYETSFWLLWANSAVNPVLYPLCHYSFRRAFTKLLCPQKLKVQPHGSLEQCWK

Biological target: T1, histamine H3 -receptor (Rattus norvegicus, UniProt Q9QYN8)
T1 construct: Van der Werf et al., Agents and Actions 20, 3/4 (1987) p; 239-243; from tissue
Assay: Agonistic activity on the H3-receptor, rat cortex
Assay type: cell-based
Details: Table 3, agonistic activity, read-out: pD2 (converted)

N=C(N)SCCc1cnc[nH]1 [VUF 8325, S-[2-(4-imidazolyl)ethyl]isothiourea]
EC50: 0.501 nM
